# ARNT TACC3 PPI: disruptors of human ARNT/TACC3 interaction | Q9Y6A5 | AlphaScreen His-ARNT PAS-B/GST-TACC3 binding, luminescence; TACC3 fragment carries E629A point mutation | inhibition, % at 9.99 µM | actives 0.66% (n = 390,000);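 active = mean inhibition of replicates at least 50% and at least half of replicates each reaching 50%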;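 also: 0% = complete ARNT plus TACC3 wells and 100% = ARNT alone without TACC3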
# UUG fidelity: yeast start codon fidelity modulation; actives 0.13% (n = 350,000); activity score, % at 18.7 µM; S. cerevisiae UUG-firefly luciferase reporter, luminescence/redox ratio;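 active = replicate mean at a twofold rise or more, about +100% in these data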;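 note: firefly luciferase made from a UUG start codon reports start codon fidelity; reporter light over untreated wells divided by growth signal over untreated wells; some hits fall short of that in this replicate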
# PglD inh: PglD (C. jejuni) enzyme inhibition | purified PglD enzyme, DTNB colorimetric CoA detection | AID 602405 | actives 0.098% (n = 360,000) | inhibition, % at 12.5 µM; in the data active = inhibition above about 16%, passing the limit was not always enough
# Vif imaging: inhibitors of HIV Vif; AID 602346; inhibition, % at 7.49 µM; HEK293T cells, Vif self-association by quenched fluorescence, imaging, 24 h; actives 0.35% (n = 340,000); in the data active = inhibition above about 50%, passing the limit was not always enough
# CAL PDZ FP-1: inhibitors of human CAL PDZ peptide binding; purified CAL PDZ, TMR-peptide fluorescence polarization, 1 h; inhibition, % at 20 µM; actives 0.02% (n = 330,000); AID 504414;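 active = highest replicate inhibition of at least 40%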;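 also: plate controls were DMSO neutral control wells for no effect and unlabeled competitor peptide control wells for full effect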
#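 Material – purified CerCALP PDZ construct · Detection – FP readout, S and P plane fluorescence · Measure – percent inhibition from loss of millipolarization · Controls – unlabelled peptide for full inhibition, DMSO wells as neutral · Probe or stimulus – TMR-labelled reporter peptide T*-PRC34 bound in PDZ groove · Times – 1 h at RT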
# CAL PDZ FP-2: inhibitors of human CAL PDZ peptide binding; purified CAL PDZ, TMR-peptide fluorescence polarization, 1 h; AID 602252; inhibition, % at 24.9 µM; actives 0.92% (n = 300,000);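 active = mean inhibition of at least 30% with at least half of replicates also reaching 30%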;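 also: 0% = DMSO neutral control and 100% = excess unlabeled competitor peptide PRC23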
# Starred values were filed as active, the others as inactive; . = not tested or not shown. Compounds with a hit are over-represented: about 1.6% of the library has one in this group of screens.
SMILES,ARNT TACC3 PPI,UUG fidelity,PglD inh,Vif imaging,CAL PDZ FP-1,CAL PDZ FP-2
CC(C)NC(=O)CSc1nnc(CNC(=O)OC(C)(C)C)n1C,-5,.,.,-14,0,84*
CC(C)NC(=O)N[C@@H]1CC[C@@H](CCNC(=O)C2CCCC2)O[C@@H]1CO,.,-3,0,.,.,.
C[C@@H]1CN([C@H](C)CO)C(=O)c2cc(NC(=O)Cc3ccccc3)ccc2O[C@@H](C)CCCCO[C@H]1CN(C)Cc1ccc(Cl)c(Cl)c1,-2,8,-1,.,.,.
O=C(O)CC1S/C(=N/N=C/c2ccccn2)NC1=O (stereo not drawn),71*,.,.,-1,-2,.
Cc1ccccc1-c1cnc2c(c1)C(=O)N([C@@H](C)CO)C[C@H](C)[C@@H](CN(C)Cc1ccncc1)O2,0,-13,1,.,.,.
COc1cc(/C=C/C(=O)OCC(=O)c2ccc[nH]2)cc(OC)c1OC,-5,7,0,0,0,40*
Cc1ccc(-c2cc(C(F)(F)F)c(C#N)c(=O)[nH]2)cc1,-11,-9,9,5,-3,1
N#Cc1c(C(F)(F)F)cc(-c2ccccc2)[nH]c1=O,-4,-9,5,3,-2,36*
Nn1cnnc1N/N=C/c1cc(Br)cc(Br)c1O,49*,.,.,-6,-1,1
C=C(C)Cn1c(SCCCO)nc2c1c(=O)[nH]c(=O)n2C,8,-9,4,4,.,0

# 3 compounds already listed, ordered by the value under PglD inh, descending:
SMILES	PglD inh
Cc1ccc(-c2cc(C(F)(F)F)c(C#N)c(=O)[nH]2)cc1	9
Cc1ccccc1-c1cnc2c(c1)C(=O)N([C@@H](C)CO)C[C@H](C)[C@@H](CN(C)Cc1ccncc1)O2	1
C[C@@H]1CN([C@H](C)CO)C(=O)c2cc(NC(=O)Cc3ccccc3)ccc2O[C@@H](C)CCCCO[C@H]1CN(C)Cc1ccc(Cl)c(Cl)c1	-1

# Other entries follow.
SMILES,ARNT TACC3 PPI,UUG fidelity,PglD inh,Vif imaging,CAL PDZ FP-1,CAL PDZ FP-2
C=C(C)Cn1c(Sc2nc3ccccc3[nH]2)nc2c1c(=O)[nH]c(=O)n2C,-3,-13,-7,8,-1,35*
Cc1cccc(N(Cc2cc(=O)[nH]c3ccccc23)C(=O)C(C)C)c1,-2,6,4,0,.,35*
CC(=O)N(Cc1cc(=O)[nH]c2ccccc12)c1cccc(C)c1,13,10,6,-2,-2,-6
C[C@@H]1CCCCO[C@H](CN(C)C(=O)Nc2ccc3c(c2)OCO3)[C@H](C)CN([C@@H](C)CO)C(=O)c2cc(NC(=O)CCCN(C)C)ccc2O1,45*,9,-1,.,.,.
Cc1ccc(S(=O)(=O)N(C)C[C@H]2Oc3c(NC(=O)NC4CCCCC4)cccc3C(=O)N([C@@H](C)CO)C[C@H]2C)cc1,0,9,0,.,.,.
Cc1ccc(S(=O)(=O)N(C)C[C@@H]2Oc3c(NC(=O)NC4CCCCC4)cccc3C(=O)N([C@H](C)CO)C[C@@H]2C)cc1,active,25,0,.,.,.
Cc1noc(C)c1NC(=O)Nc1cccc2c1O[C@H](CN(C)C(=O)Nc1cccc3ccccc13)[C@@H](C)CN([C@H](C)CO)C2=O,11,18,16*,.,.,.
C[C@H]1CN([C@@H](C)CO)C(=O)c2cccc(NC(=O)c3ccc(-c4nccs4)cc3)c2O[C@@H]1CN(C)C,-4,9,21*,.,.,.
C[C@@H]1CN([C@H](C)CO)C(=O)c2cccc(NC(=O)c3ccc(-c4nccs4)cc3)c2O[C@@H]1CN(C)C,-3,-1,2,.,.,.
COc1ccc(S(=O)(=O)N(C)C[C@H]2Oc3ccc(NC(=O)CCCN(C)C)cc3CC(=O)N([C@H](C)CO)C[C@@H]2C)cc1,0,5,-1,.,.,.
CO[C@@H]1CN(C)C(=O)c2ccc(NC(=O)C3CC3)cc2OC[C@@H](C)NC[C@H]1C,-5,6,-1,.,.,.
CCCNC(=O)N1[C@H](C#N)[C@H](c2ccc(-c3cccnc3)cc2)[C@@H]1CO,7,17,-2,.,.,.
C[C@@H]1CCCCO[C@H](CN(C)Cc2ccc3c(c2)OCO3)[C@@H](C)CN([C@@H](C)CO)C(=O)c2cc(NC(=O)Nc3ccc(C(F)(F)F)cc3)ccc2O1,29,0,-1,.,.,.
C[C@H](CO)N1C[C@H](C)[C@H](CN(C)Cc2ccc3c(c2)OCO3)OCCCC[C@H](C)Oc2ccc(NC(=O)Nc3ccc(C(F)(F)F)cc3)cc2C1=O,46*,8,-2,.,.,.
C[C@@H]1CN([C@@H](C)CO)C(=O)c2cccc(NS(C)(=O)=O)c2O[C@@H]1CN(C)C(=O)Nc1ccc2c(c1)OCO2,active,35,-25,.,.,.
C[C@H]1CN([C@@H](C)CO)C(=O)c2cccc(NS(C)(=O)=O)c2O[C@H]1CN(C)C(=O)Nc1ccc2c(c1)OCO2,3,28,-27,.,.,.

# Shown as a hit in PglD inh, among the entries above:
SMILES,ARNT TACC3 PPI,UUG fidelity,PglD inh,Vif imaging,CAL PDZ FP-1,CAL PDZ FP-2
Cc1noc(C)c1NC(=O)Nc1cccc2c1O[C@H](CN(C)C(=O)Nc1cccc3ccccc13)[C@@H](C)CN([C@H](C)CO)C2=O,11,18,16*,.,.,.
C[C@H]1CN([C@@H](C)CO)C(=O)c2cccc(NC(=O)c3ccc(-c4nccs4)cc3)c2O[C@@H]1CN(C)C,-4,9,21*,.,.,.

# Screens as filed in PubChem.
